Consider 1 substance from patent publication US20150045330A1, “PROPHYLACTIC AND THERAPEUTIC DRUG FOR AMYOTROPHIC LATERAL SCLEROSIS AND METHOD OF SCREENING THEREFOR” (priority 2012, published 2015).

This data set relates to ALS-MNs. Briefly: Influence of arsenite addition on HB9::GFP-positive ALS-MNs. The following applies: 0.5 mM arsenite, 1 hr after addition, compared to non-addition group and normal MNs group; FIGS. 11D and E.

With arsenite, the “number of survival ALS-MNs” value is on record as “significantly decreased”.
